By UniProt entry, the sequences of proteins in these tests, tags left out. Where a name states a change or a piece, a line headed by the entry shows the natural chain unless it says otherwise.
UniProt P49789: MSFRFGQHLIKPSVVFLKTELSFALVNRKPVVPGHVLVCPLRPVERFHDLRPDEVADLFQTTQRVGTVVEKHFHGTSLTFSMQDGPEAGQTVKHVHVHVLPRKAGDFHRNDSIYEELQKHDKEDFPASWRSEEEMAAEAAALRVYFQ

According to publication PMC4613722, “Adenylylsulfate–ammonia adenylyltransferase activity is another inherent property of Fhit proteins” (2015):

Target: human Fhit (Homo sapiens, UniProt P49789)
Assay: TLC and radioactivity of labelled NH2-pA; Eadie–Hofstee plot
Details: ammonolysis; 185 mM NH3, 200 mM CAPS/NaOH pH 10.6; F-pA 0.62–5 mM; labelled compound (8-3H)

Question: For F-pA, which Km is on record?
Answer: The Km was 1600 µM.
